Data on 1 substance can be found in US10968265B2, “Antibody-coupled cyclic peptide tyrosine tyrosine compounds as modulators of neuropeptide Y receptors” (Janssen Pharmaceutica NV, priority 2016, dated 2021).

The chains behind the UniProt entries cited, without tags or fusion partners. Residues count along the entry.
UniProt Q9GK74, whole entry: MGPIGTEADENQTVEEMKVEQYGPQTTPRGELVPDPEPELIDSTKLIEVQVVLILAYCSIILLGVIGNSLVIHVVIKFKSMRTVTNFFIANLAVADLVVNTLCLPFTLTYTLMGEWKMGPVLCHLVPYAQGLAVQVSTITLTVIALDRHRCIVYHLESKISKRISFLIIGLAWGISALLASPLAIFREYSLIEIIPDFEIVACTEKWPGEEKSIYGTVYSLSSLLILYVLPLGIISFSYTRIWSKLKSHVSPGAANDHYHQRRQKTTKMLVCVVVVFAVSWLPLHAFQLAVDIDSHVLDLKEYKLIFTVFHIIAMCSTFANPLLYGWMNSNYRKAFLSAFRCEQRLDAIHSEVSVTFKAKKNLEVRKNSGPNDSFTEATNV
UniProt Q9ERC0, 1-381: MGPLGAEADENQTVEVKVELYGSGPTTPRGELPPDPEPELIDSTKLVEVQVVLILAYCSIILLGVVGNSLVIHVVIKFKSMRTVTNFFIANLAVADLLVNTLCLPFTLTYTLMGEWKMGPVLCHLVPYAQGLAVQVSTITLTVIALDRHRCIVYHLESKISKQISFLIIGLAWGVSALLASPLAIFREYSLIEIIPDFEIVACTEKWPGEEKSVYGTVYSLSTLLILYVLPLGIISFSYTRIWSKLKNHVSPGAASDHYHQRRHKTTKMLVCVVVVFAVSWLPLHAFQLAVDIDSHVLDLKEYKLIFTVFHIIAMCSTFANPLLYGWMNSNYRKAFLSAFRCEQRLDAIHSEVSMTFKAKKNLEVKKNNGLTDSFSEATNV
UniProt P97295, whole entry: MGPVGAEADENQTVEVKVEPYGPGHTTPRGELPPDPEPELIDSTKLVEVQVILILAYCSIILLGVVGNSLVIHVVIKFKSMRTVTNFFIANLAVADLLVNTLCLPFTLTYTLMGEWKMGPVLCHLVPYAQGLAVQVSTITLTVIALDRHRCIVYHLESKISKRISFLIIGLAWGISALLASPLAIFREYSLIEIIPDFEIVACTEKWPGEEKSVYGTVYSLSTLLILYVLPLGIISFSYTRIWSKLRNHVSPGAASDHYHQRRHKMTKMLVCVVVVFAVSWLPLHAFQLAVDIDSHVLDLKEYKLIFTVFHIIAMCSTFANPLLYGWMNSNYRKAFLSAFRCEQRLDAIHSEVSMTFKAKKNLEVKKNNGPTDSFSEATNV

Format in all cases: cell-based
The target of experiment [1] is T1, rhesus monkey Y2 receptor (Macaca mulatta, UniProt Q9GK74).
T1 construct: expressed in transfected cells
Put plainly: cAMP assay, rhesus monkey Y2 receptor. The following applies: read-out: Cross-species potency (EC50 nM) Rhesus Monkey Y2, Table 2.

The next experiment addresses T2, rat Y2 receptor (Rattus norvegicus, UniProt Q9ERC0).
T2 construct: host or cells: GloSensor CHO-K1 (also carries the pGloSensor-23F cAMP plasmid)
Put plainly: cAMP assay, rat Y2 receptor. The following applies: read-out: Cross-species potency (EC50 nM) Rat Y2, Table 2. A general note: cAMP levels reflect the balance of adenylyl cyclase and phosphodiesterase activity.

The target in another experiment is T3, mouse Y2 receptor (Mus musculus, UniProt P97295).
T3 construct: expressed in transfected cells
Put plainly: cAMP assay, mouse Y2 receptor. As to conditions: read-out: Cross-species potency (EC50 nM) Mouse Y2, Table 2.

By EC50 is commonly meant the concentration giving half of the maximal effect. Regarding PYY3-36, the EC50 in experiment [1] was determined as 0.06 nM; at rat Y2 receptor it was 0.5 nM; on mouse Y2 receptor it was 0.03 nM.
